PubChem BioAssay (NCI)
Several values for one entry are separate records, joined by “and”; a condition that tells them apart may be missing. Identical values can stand only once. The list shows a part of the results, in another mix than the full data.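 Negative percent growth values reflect cell death: -40 means 40% of the cells present at the start died, and -100 means all died.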 Activity calls are given as the source filed them. Rule for the calls: active = growth percent below 10; inactive = the rest.

Legend:
Assay in all cases: NCI-60 one-dose screen, 48 h (100 = growth as untreated, 0 = no growth, -100 = all killed)
Conditions in all cases: 10 µM
NCI-H23 lung = test system: NCI-H23 lung
NCI-H226 lung = test system: NCI-H226 lung
NCI-H322M lung = test system: NCI-H322M lung
HOP-62 NSCLC = test system: HOP-62 NSCLC
NCI-H460 lung = test system: NCI-H460 lung
HOP-92 NSCLC = test system: HOP-92 NSCLC
NCI-H522 lung = test system: NCI-H522 lung
A549/ATCC NSCLC = test system: A549/ATCC NSCLC
786-0 renal = test system: 786-0 renal
COLO 205 colon = test system: COLO 205 colon

| Structure (SMILES) | growth (NCI-H23 lung) | growth (NCI-H226 lung) | growth (NCI-H322M lung) | growth (HOP-62 NSCLC) | growth (NCI-H460 lung) | growth (HOP-92 NSCLC) | growth (NCI-H522 lung) | growth (A549/ATCC NSCLC) | growth (786-0 renal) | growth (COLO 205 colon) |
| --- | --- | --- | --- | --- | --- | --- | --- | --- | --- | --- |
| O=C(O)CCc1ccc(CSCCCl)cc1 | inactive: 107% | inactive: 103% | inactive: 105% | inactive: 106% | inactive: 108% | inactive: 103% | inactive: 99.1% | inactive: 106% | inactive: 102% | inactive: 107% |
| COc1ccc(N)cc1CN(CCCl)CCCl | inactive: 71.6% | inactive: 77.9% | inactive: 101% | inactive: 60.8% | inactive: 46.3% | inactive: 62.7% | inactive: 44.9% | inactive: 69.7% | inactive: 57.6% | inactive: 59.6% |
| Cc1ccc(NC2(C(N)=O)CCN(Cc3ccccc3)CC2)cc1 | inactive: 95.6% | inactive: 94.6% | inactive: 99% | inactive: 100% | inactive: 110% | inactive: 87.9% | inactive: 93.4% | inactive: 99.7% | inactive: 101% | inactive: 118% |
| Fc1ccc(CCN(CCCl)CCCl)cc1 | inactive: 115% | inactive: 96.7% | inactive: 104% | inactive: 106% | inactive: 104% | inactive: 104% | inactive: 70.7% | inactive: 97.8% | inactive: 104% | inactive: 112% |
| NC(Cc1cccc(N(CCCl)CCCl)c1)C(=O)O (stereo not drawn) | inactive: 100% and inactive: 101% | inactive: 86.4% and inactive: 89% | inactive: 106% and inactive: 97.8% | inactive: 104% and inactive: 95.9% | inactive: 67.5% and inactive: 87% | inactive: 90% and inactive: 94.6% | inactive: 88.1% and inactive: 93.5% | inactive: 101% and inactive: 98.9% | inactive: 107% and inactive: 105% | inactive: 98.5% and inactive: 103% |
| O/N=C/c1ccc(N(CCCl)CCCl)cc1 | inactive: 89.4% | inactive: 76.2% | inactive: 101% | inactive: 98.3% | inactive: 54.4% | inactive: 104% | inactive: 75.2% | inactive: 83.9% | inactive: 94.9% | inactive: 112% |
| C1CCNCC1.O=C(O)C(O)c1ccc(N(CCCl)CCCl)cc1 (stereo not drawn) | inactive: 106% | inactive: 78.5% | inactive: 98.5% | inactive: 104% | inactive: 95.2% | inactive: 89.9% | inactive: 87.5% | inactive: 102% | inactive: 108% | inactive: 94.4% |
| Cc1ccc(C(=O)N(CCCl)CCCl)cc1 | inactive: 113% | inactive: 96.2% | inactive: 101% | inactive: 114% | inactive: 99.7% | inactive: 99.8% | inactive: 84.5% | inactive: 95% | inactive: 102% | inactive: 115% |
| Cc1ccc(S(=O)(=O)CN(CCBr)CCBr)cc1 | inactive: 105% | inactive: 103% | inactive: 110% | inactive: 109% | inactive: 103% | inactive: 96.1% | inactive: 92.2% | inactive: 90.1% | inactive: 106% | inactive: 125% |
| CCOc1ccc(N(CCCl)CCCl)cc1 | inactive: 68.4% | inactive: 75% | inactive: 99.9% | inactive: 73.7% | inactive: 22.6% | inactive: 55.8% | inactive: 57.3% | inactive: 51.4% | inactive: 52.8% | inactive: 70.1% |
| O=C1CCN(CCc2ccccc2)CC1 | inactive: 79% | inactive: 102% | inactive: 98% | inactive: 76.7% | inactive: 107% | inactive: 95.3% | inactive: 83.4% | inactive: 97% | inactive: 86.3% |  |
| ClCCN1[C@@H](CCl)CC[C@@H]1c1ccccc1 | inactive: 90.4% | inactive: 107% | inactive: 117% | inactive: 103% | inactive: 88.4% | inactive: 99.8% | inactive: 86.3% | inactive: 97.3% | inactive: 101% | inactive: 105% |
| COc1cc(CN(CCCl)CCBr)cc(OC)c1 | inactive: 104% | inactive: 99.3% | inactive: 113% | inactive: 99.7% | inactive: 104% | inactive: 113% | inactive: 82.1% | inactive: 98.3% | inactive: 111% | inactive: 116% |
| Oc1ccc(N(CCCl)CCCl)cc1 | inactive: 82.2% | inactive: 92.3% | inactive: 112% | inactive: 90.9% | inactive: 16.3% | inactive: 86.7% | inactive: 76.9% | inactive: 54.4% | inactive: 96.4% | inactive: 81.9% |
| ClCCN1CCN(CCCl)CC1 | inactive: 101% and inactive: 103% | inactive: 98.9% and inactive: 92.5% | inactive: 92.7% and inactive: 99.4% | inactive: 95.7% and inactive: 98.2% | inactive: 105% and inactive: 103% | inactive: 109% | inactive: 94% | inactive: 96.9% and inactive: 98.7% | inactive: 105% and inactive: 96.4% | inactive: 98.9% and inactive: 101% |
| c1ccc(CN2CCC(Nc3ccccc3)CC2)cc1 | inactive: 93.2% | inactive: 97.9% | inactive: 102% | inactive: 89.7% | inactive: 109% | inactive: 85.7% | inactive: 102% | inactive: 124% | inactive: 96% | inactive: 102% |
| O=Cc1ccc(N(CCCl)CCCl)cc1Cl | inactive: 69.8% | active: -63.8% | inactive: 102% | inactive: 60.7% | active: 2.87% | inactive: 63.3% | inactive: 83.8% | inactive: 49.5% | inactive: 86.2% | inactive: 50.5% |
| CCCSP(=O)(CCl)N(CCCl)CCCl (stereo not drawn) | inactive: 102% | inactive: 96.8% | inactive: 101% | inactive: 113% | inactive: 96.6% | inactive: 80.3% | inactive: 74% | inactive: 95.8% | inactive: 103% | inactive: 110% |
| CC(=O)N(c1ccccc1)C1CCNCC1 | inactive: 111% | inactive: 103% | inactive: 120% | inactive: 108% | inactive: 112% | inactive: 129% | inactive: 104% | inactive: 112% | inactive: 117% | inactive: 113% |
| O=C(O)CCCCc1ccc(N(CCCl)CCCl)cc1 | inactive: 85.6% | inactive: 93.5% | inactive: 103% | inactive: 85.5% | inactive: 56.8% | inactive: 87.1% | inactive: 83.8% | inactive: 73.3% | inactive: 92.4% | inactive: 89.1% |
| N#CC1(Nc2ccccc2)CCN(Cc2ccccc2)CC1 | inactive: 91.3% | inactive: 100% | inactive: 307% | inactive: 84.4% | inactive: 101% | inactive: 85.8% | inactive: 84.2% | inactive: 87.7% | inactive: 69.5% |  |
| O=C(O)c1ccc(N(CCCl)CCCl)cc1 | inactive: 111% | inactive: 104% | inactive: 136% | inactive: 107% | inactive: 112% | inactive: 118% | inactive: 83.9% | inactive: 105% | inactive: 115% | inactive: 121% |
| Cc1ccc2oc(=O)cc(CN(CCCl)CCCl)c2c1 | inactive: 92.9% | inactive: 90.5% | inactive: 106% | inactive: 91.7% | inactive: 89.5% | inactive: 106% | inactive: 74.6% | inactive: 96.2% | inactive: 109% | inactive: 98.8% |
| Cc1cccc(NC2(C#N)CCN(Cc3ccccc3)CC2)c1 | inactive: 108% | inactive: 107% | inactive: 103% | inactive: 101% | inactive: 111% | inactive: 90.3% | inactive: 114% | inactive: 98.3% | inactive: 102% | inactive: 109% |
| Cc1ccc(N(CCCl)CCCl)cc1 | inactive: 57.1% | inactive: 85.2% | inactive: 103% | inactive: 62.9% | inactive: 25.4% | inactive: 77.1% | inactive: 71.4% | inactive: 62.7% | inactive: 31.5% | inactive: 86.9% |
| CCC(C)(C)c1ccc(O)c(CN(CCCl)CCCl)c1 | inactive: 104% | inactive: 106% | inactive: 101% | inactive: 103% | inactive: 106% | inactive: 109% | inactive: 93.4% | inactive: 105% | inactive: 90.6% | inactive: 107% |
| Cc1ccccc1NC1(C#N)CCN(Cc2ccccc2)CC1 | inactive: 104% | inactive: 112% | inactive: 95.5% | inactive: 106% | inactive: 106% | inactive: 75.2% | inactive: 108% | inactive: 97.3% | inactive: 102% | inactive: 112% |
| Cc1ccc(NC2(C#N)CCN(Cc3ccccc3)CC2)cc1 | inactive: 108% | inactive: 93.8% | inactive: 94.7% | inactive: 89% | inactive: 103% | inactive: 89.1% | inactive: 87.5% | inactive: 93.8% | inactive: 101% | inactive: 129% |
| Cc1ccc(NC2(C(N)=O)CCNCC2)cc1 | inactive: 93.7% | inactive: 98.5% | inactive: 103% | inactive: 105% | inactive: 109% | inactive: 91.4% | inactive: 53.1% | inactive: 99.2% | inactive: 95.4% | inactive: 114% |
